The results in this text go back to PubChem BioAssay AID2058 (Sanford-Burnham Center for Chemical Genomics, 2009).

By UniProt entry, the sequences of proteins in these tests, tags left out. Where a name states a change or a piece, a line headed by the entry shows the natural chain unless it says otherwise.
UniProt Q9HC97: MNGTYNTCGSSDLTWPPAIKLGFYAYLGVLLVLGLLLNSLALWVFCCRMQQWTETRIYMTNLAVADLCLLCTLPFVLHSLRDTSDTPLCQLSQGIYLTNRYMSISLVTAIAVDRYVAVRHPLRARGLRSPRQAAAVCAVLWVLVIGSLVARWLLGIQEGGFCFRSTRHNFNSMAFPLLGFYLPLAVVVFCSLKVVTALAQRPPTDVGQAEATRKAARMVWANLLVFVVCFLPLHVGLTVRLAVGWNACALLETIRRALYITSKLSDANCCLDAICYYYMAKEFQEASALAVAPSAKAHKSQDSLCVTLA

In general, inhibition refers to the change of the read-out against control, counted positive when it falls.

Where “and” joins values, the source holds several entries; their conditions need not be identical. Identical values can stand only once. Only a part is listed here, and it is no random draw. Potency and affinity values are given separately. Calls of active or inactive are those of the source.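 Rule for the calls: active = inhibition of at least 50% with at least 30 cells and total cytoplasm GFP at most 10,000,000; inconclusive = under 30 cells or total GFP of 10,000,000 plus; inactive = the rest.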

This experiment addresses G-protein coupled receptor 35 (Homo sapiens) (UniProt Q9HC97). The experiment in a line: inhibition of zaprinast-stimulated GPR35 beta-arrestin translocation – imaging, U2OS, beta-arrestin-GFP, zaprinast agonist, primary screen (AID 2058). To be noted: zaprinast antagonism, at 10 µM, active compounds read high.
`CC(C)(C)C(=O)NC(Sc1ccncn1)C(Cl)(Cl)Cl` (stereo not given): the inhibition is inactive: -4.4%. Next, `O=[N+]([O-])c1ncn(CCn2ncnc2[N+](=O)[O-])n1`: inactive: -0.4%. The value for `O=[N+]([O-])c1cccc(NC2=NCC(CBr)S2)c1` (stereo not given) was inactive: -2.2%. Regarding `O=C(O)CNc1ccc([As](=O)(O)O)cc1`, the inhibition was inactive: 3.3%.

With `O=C(Nc1cc([As](=O)(O)O)ccc1O)c1ccccc1`, the inhibition is inactive: 8.3%. The value for `Nc1ccc([As](=O)(O)c2ccc(N)cc2)cc1` was inactive: 0.2%; that for `C[N+]1=C2C=CC=CC=C2SC12C([N+](=O)[O-])=CC([N+](=O)[O-])=C[C-]2[N+](=O)[O-]` (stereo not given) was inactive: -25.5%. Next, `CCN(/C(=N/P(=O)(N1CCOCC1)N1CCOCC1)N1CCOCC1)c1ccc(OC)cc1`: inactive: 5.7%; `CC(C)=N/N=C(\N)N[N+](=O)[O-]`: inactive: 14.4%; `CN(C)C(=O)OCCc1n(C)cc[n+]1C`: inactive: 5.6%.

Consider `CC1CCN(C(=O)Oc2c(Cl)cc(Cl)c3cccnc23)CC1`, for which the inhibition was inactive: 9.8%. Next, `COc1ccc(C2=NCC(CBr)S2)cc1` (stereo not given): inactive: 2.2%. As for `CC(=O)N1C2C3N(C(C)=O)C1C1N(C(C)=O)C(C(N1C(C)=O)N3C(C)=O)N2C(C)=O`, the inhibition is inactive: 2%. For `O=[N+]([O-])c1cccc2n[nH]nc12`, the inhibition was inactive: -14.7%. Next, `Cc1ccc(NP(=O)(Oc2ccccc2)Oc2ccccc2)nc1`: inactive: 10.8%. Take `O=[N+]([O-])c1cc([N+](=O)[O-])c(CCNc2ccccc2)c([N+](=O)[O-])c1`: the inhibition was inactive: -17%.

Turning to `CCc1nc2c(n1)c1c(non1O)c1c2no[n+]1[O-]`, the inhibition is inactive: -12.6%. Next, `Nc1cc(N)c2nonc2c1[N+](=O)[O-]`: inactive: 4.5%; `CC(C)CC(=O)NC(Sc1ccc(Cl)cc1)C(Cl)(Cl)Cl` (stereo not given): inactive: -1.1%; `Oc1ccccc1CNc1ccccn1`: inactive: -13.3%. The value for `O=C(NC(Sc1ccncn1)C(Cl)(Cl)Cl)c1ccccc1` (stereo not given) was inactive: 3.9%. Next, `Cc1c2non([O-])c-2c(C)[n+](=O)[n+]1[O-]`: inactive: 9.9%; `NC(=O)c1cc([N+](=O)[O-])cc([N+](=O)[O-])c1N`: inactive: -6.7%; `Cc1ccc(N/C(=N/P(=O)(N2CCOCC2)N2CCOCC2)N2CCOCC2)cc1`: inactive: -13.1%. Regarding `COc1ccccc1OP(=O)(Nc1ccc(C)cn1)Oc1ccccc1OC`, the inhibition is inactive: 4.8%. The value for `Cc1ccc(OP(=O)(Nc2nccs2)Oc2ccc(C)cc2)cc1` was inactive: -14.6%.

As for `CN1CCCC(OC(=O)C(c2ccccc2)c2ccccc2)C1` (stereo not given), the inhibition was inactive: -3.8%.

On to `Clc1ccc(Cl)c(NC2=NCC(CBr)S2)c1` (stereo not given), for which the inhibition is inactive: 7.5%. Next, `O=[N+]([O-])c1cc([N+](=O)[O-])c(CCN2CCOCC2)c([N+](=O)[O-])c1`: inactive: 8%; `CCN(N=Nc1nonc1N)c1nonc1N`: inactive: -3.1%; `Nc1cccc2ccc([As](=O)(O)O)cc12`: inactive: 8.1%. Turning to `CC(=O)Nc1ccc([As](=O)(O)O)cc1`, the inhibition was inactive: 4.5%.

As for `O=C(O)c1ccccc1[As](=O)(O)O`, the inhibition is inactive: 12.4%.

In the case of `O=P(Nc1nc2ccc(Cl)cc2s1)(c1ccccc1)c1ccccc1`, the inhibition was inactive: -5.6%. Next, `Cc1cc(SC(NC(=O)c2ccc(F)cc2)C(Cl)(Cl)Cl)ncn1` (stereo not given): inactive: 3.7%; `CCOP(=O)(Nc1ccccc1)OCC`: inactive: -3.8% and inactive: -5.3%. Next, `Cc1ccc(NP(=O)(Oc2ccccc2F)Oc2ccccc2F)nc1`: inactive: 0.4%; `COC(=O)c1cc2c(s1)N=C(c1ccccc1)N(C)P2(=O)N1CCOCC1` (stereo not given): inactive: 7.1%. Turning to `CC(=O)NC(SC(=S)N(CC(C)C)CC(C)C)C(Cl)(Cl)Cl` (stereo not given), the inhibition is inactive: 4.2%. The value for `Cc1ccc(OP(=O)(Nc2ccccn2)Oc2ccc(C)cc2)cc1` was inactive: 4.1%.

`O=C(OC1CN2CCC1CC2)c1ccccc1` (stereo not given): the inhibition was inactive: 14%. Next, `CCC(=O)N1C2C3N(C(=O)CC)C1C1N(C(=O)CC)C(C(N1C(=O)CC)N3C(=O)CC)N2C(=O)CC`: inactive: -0.1%; `Cc1ccccc1OP(=O)(Nc1ccccn1)Oc1ccccc1C`: inactive: -5.1%.

With `O=c1c2cc([N+](=O)[O-])ccc2[nH]c2c([N+](=O)[O-])cc([N+](=O)[O-])cc12`, the inhibition was inactive: -16%. For the molecule `CN(C)C(=O)Oc1noc2ccccc12`, the inhibition is inactive: -15%. Take `O=C(NC1CCS(=O)(=O)C1)NP(=S)(Oc1ccccc1)Oc1ccccc1` (stereo not given): the inhibition is inactive: 6%. The value for `CCNC(=S)/N=C(\N)N[N+](=O)[O-]` was inactive: 15.6%; that for `c1ccc(-c2nn[nH]n2)c(-c2nn[nH]n2)c1` was inactive: 0.2%. The value for `Cc1ccc(NP(=O)(Oc2cccc(C)c2)Oc2cccc(C)c2)nc1` was inactive: -10.6%. For the molecule `CCOC(=O)NC(Sc1ccccc1)C(Cl)(Cl)Cl` (stereo not given), the inhibition was inactive: 13.3%.

Turning to `CC(=O)c1ccc(N2CC2c2ccncc2)cc1` (stereo not given), the inhibition was inactive: -17.4%.

Regarding `C[C@H]1OP(=O)(Oc2ccccc2)C[C@@H]2O[C@@H]21` (stereo not given in full), the inhibition is inactive: -21%.

For `C[C@@H]1C=CCP(=O)(Oc2ccccc2)O1` (stereo not given in full), the inhibition was inactive: -9.6%. Next, `CC(=O)Nc1ccc([As](=O)(O)O)c(O)c1`: inactive: 7.3%; `CC(=O)Nc1ccc(Oc2c([N+](=O)[O-])cc([N+](=O)[O-])cc2[N+](=O)[O-])cc1`: inactive: -1.6%. Take `O=P1(Nc2nc3ccc(Cl)cc3s2)COc2ccccc2O1` (stereo not given): the inhibition is inactive: -6.7%.

As to `CCOc1ccc(C2=NCC(CBr)S2)cc1` (stereo not given), the inhibition is inactive: -10.6%.

As to `CC(C)(C)C(=O)NC(Sc1ccccc1)C(Cl)(Cl)Cl` (stereo not given), the inhibition is inactive: -0.6%.

With `O=P(Nc1nccs1)(c1ccccc1)c1ccccc1`, the inhibition is inactive: 12.1%. Consider `CC(C)C(=O)NC(Sc1ccccc1)C(Cl)(Cl)Cl` (stereo not given), for which the inhibition is inactive: -3.6%. The value for `c1nnnn1CCn1cnnn1` was inactive: -4.5%; that for `CC(=O)NC(SC(=S)N(C)C)C(Cl)(Cl)Cl` (stereo not given) was inactive: 10.4%; that for `O=[N+]([O-])c1ncn(CCn2cnc([N+](=O)[O-])n2)n1` was inactive: 1.1%. For `O=[N+]([O-])c1ccc(O)c(/C=N/Nc2ccc([N+](=O)[O-])cc2[N+](=O)[O-])c1`, the inhibition was inactive: -22.2%. Regarding `O=[As](O)(c1ccccc1)c1ccc(O)cc1`, the inhibition was inactive: 2.8%.
